Values of other authors, collected in article PMC2810552 (Journal of medicinal chemistry, 2009).

Molecular target: T1, recombinant human GR (Homo sapiens, UniProt P04150)
T1 sequence (P04150 1-777): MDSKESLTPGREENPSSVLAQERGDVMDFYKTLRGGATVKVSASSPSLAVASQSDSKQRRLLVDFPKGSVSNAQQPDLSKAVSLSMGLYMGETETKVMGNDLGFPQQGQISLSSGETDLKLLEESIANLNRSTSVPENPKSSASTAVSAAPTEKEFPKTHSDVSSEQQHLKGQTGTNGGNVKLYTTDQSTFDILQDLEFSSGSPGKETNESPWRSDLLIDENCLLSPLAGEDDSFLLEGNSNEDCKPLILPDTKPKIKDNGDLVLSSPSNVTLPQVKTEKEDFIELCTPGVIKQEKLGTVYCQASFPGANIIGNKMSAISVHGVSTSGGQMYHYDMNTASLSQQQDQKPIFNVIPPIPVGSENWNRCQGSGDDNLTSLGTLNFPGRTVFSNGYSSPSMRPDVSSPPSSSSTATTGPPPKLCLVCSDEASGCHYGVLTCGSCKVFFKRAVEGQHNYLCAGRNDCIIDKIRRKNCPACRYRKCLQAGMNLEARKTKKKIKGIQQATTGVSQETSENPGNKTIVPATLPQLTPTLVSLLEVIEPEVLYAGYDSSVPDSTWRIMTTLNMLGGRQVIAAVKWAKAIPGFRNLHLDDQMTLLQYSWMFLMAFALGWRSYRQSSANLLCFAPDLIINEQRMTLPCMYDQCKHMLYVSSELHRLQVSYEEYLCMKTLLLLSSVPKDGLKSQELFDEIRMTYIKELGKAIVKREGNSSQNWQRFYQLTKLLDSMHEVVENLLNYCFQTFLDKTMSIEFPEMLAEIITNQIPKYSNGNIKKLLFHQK
Settings: cited from earlier work

C[C@@H]1C[C@H]2[C@@H]3CCC4=CC(=O)C=C[C@]4(C)[C@@]3(F)[C@@H](O)C[C@]2(C)[C@@]1(O)C(=O)CSCCNC(=S)NCCCN(C)CCCNC(=O)CCNC(=O)c1cc(NC(=O)c2cc(NC(=O)c3cc(NC(=O)c4cc(NC(=O)CCCNC(=O)c5cc(NC(=O)c6cc(NC(=O)c7cc(NC(=O)c8nccn8C)cn7C)cn6C)cn5C)cn4C)cn3C)cn2C)cn1C [ImPy7γ-βDa-Sdex (6), ImPy7γ-βDa-Sdex]
IC50, in vitro GR competition binding assay: close to that of dex
